ERG Ets-DNA blk: inhibitors of human ERG Ets domain-DNA interaction | P11308 | fluorescence polarization, His-ERG Ets domain / labelled DNA | hit rate 0.028% among 370,000 | Potency, µM (series often up to 76.9 µM), for inactives: top-dose FP activity, negative = inhibition, actives largely listed as inhibitors; active = well fitted inhibition curve with a large enough effect in the polarisation, with a control signal flat; inconclusive = small, poorly fitted or top-dose-only effect, or effect the other way, or a change in a side signal; inactive = no such curve, though single readings can be large or run the other way; the % refers to the polarisation;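 note: polarization taken with two DNA probes labelled with fluorescein and Texas red; potency is the fitted concentration of half-maximal effect; % of control where 0% means no effect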
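His-tagged ERG Ets domain (1 uM in the protein solution; 300mM KCl, 50mM Tris-HCl, 1mM EDTA, 1mM DTT, pH 7.5) received compound, then a probe mix of 5 nM fluorescein-DNA and 100nM Texas-615-DNA. Fluorescence polarization was read for both dyes.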
Mito fusion yeast: blocks mitochondrial division or promotes mitochondrial fusion; hit rate 0.23% among 320,000; S. cerevisiae fusion-defective mutant growth rescue, CellTiterGlo 48 h; AID 485298; Potency, µM (doses to about 46.1 µM), inactives show at the top dose growth rescue (activation), hits mostly activators; note: potency is the fitted concentration of half-maximal effect; % of control where 0% means no effect; nearly all actives have a fitted effect of over 45% in size
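Luminescent cell viability in 1536-well qHTS format served as the measure of rescued growth in ts fusion-mutant S. cerevisiae cultured on non-fermentable YPEG for 48 hours at 37C.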
S-ASM inh: human S-ASM enzyme inhibition | P17405 | placental ASM, HMU-PC fluorogenic substrate, 60 min | Potency, µM (titrated, usually from 57.5 µM), inactives show at the top dose activity change, negative = inhibition, hits mostly inhibitors | hit rate 0.006% among 340,000 | AID 504937; note: potency is the fitted concentration of half-maximal effect
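HMU-PC0 cleavage (9 uM final) by human placental ASM, 60 min at 37 °C following 10 min compound exposure at RT; stopped at pH 10, fluorescence Ex 386/Em 447 nm.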
miR-21 FLuc: raises the signal of a miR-21 reporter | HeLa miR-21 FLuc reporter, luciferase, 48 h | Potency, µM (doses to about 38.3 µM), without a hit: at the top dose reporter change, positive = more light | 340,000 tested, under 10 active | AID 2288; active = well fitted rising curve with a large enough effect; inconclusive = small, poorly fitted or top-dose-only effect; inactive = no such curve, though single readings can be large or run the other way;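 note: % of control where 0% means no effect; miR-21 action dims this reporter so a rising signal means less miR-21 action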
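HeLa cells stably expressing CMV-driven firefly luciferase with a downstream miR-21 binding sequence, endogenously expressing miR-21, were treated with titrations (up to about 40uM final) for 48 hours at 37 degree Celsius. Luciferase luminescence was read after lysis.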
RXFP1 agonist: agonists of human relaxin receptor RXFP1. Q9HBX9. HEK293T-RXFP1 cAMP TR-FRET, 30 min; response scale: percent of porcine relaxin response, buffer zero. Potency, µM (doses to about 57.5 µM), inactives show at the highest dose activation, usual class: activators. hit rate 0.3% among 370,000. AID 2676; note: potency is the fitted concentration of half-maximal effect; % is set by controls: 0 for no effect and ±100 for the full control effect; nearly all actives have a fitted effect of over 60% in size
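Agonist response is measured as cAMP accumulation in an RXFP1-transfected HEK293T line under PDE4 inhibition. Values are scaled between buffer-only and 29 nM porcine relaxin, and EC50s come from standard Hill equation fits.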
RXFP1 antag: blocks the human relaxin receptor RXFP1 | Q9HBX9 | HEK293-RXFP1, relaxin-stimulated cAMP HTRF, 30 min; hits give low values | activity change, negative = inhibition, % at 57.5 µM | hit rate 0.59% among 350,000;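 active = activity change of -60% or lower, but not beyond a set lower limit; inconclusive = change between -60% and -40%, or beyond the set limit; inactive = change above -40%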; note: % is set by controls: 0 for no effect and ±100 for the full control effect
The depositor's hits bear a star; ? = inconclusive; nt = no result; ! = not confirmed by another sample. The list is not random: actives were taken first. Their share in the collection is about 0.72%. Unless noted, calls come from the whole dose curve; as a rule, active = well fitted curve in the direction sought with a large enough effect; inconclusive = small, poorly fitted or top-dose-only effect, or another doubt; inactive = no such curve, though single readings can be large; an effect the other way counts as inactive or inconclusive.

Assay codes: A = ERG Ets-DNA blk; B = Mito fusion yeast; C = S-ASM inh; D = miR-21 FLuc; E = RXFP1 agonist; F = RXFP1 antag
canonical_smiles: COc1ccc(C(=O)/C=C/C(=O)N(CC(=O)NC2CCCCC2)Cc2ccccc2)c(O)c1
  A: 7.4%; B: 7.3%; C: -0.8%; D: 3.8%; E: -1.4%; F: -64.2*

canonical_smiles: Cc1c(F)cc2c(=O)c(C(=O)O)cn3c2c1CCC3C (stereo unspecified)
  A: nt; B: nt; C: nt; D: nt; E: nt; F: -7.4

canonical_smiles: CN(C)c1ccc(/C=C2\C(=O)Nc3ccccc32)cc1
  A: nt; B: 13µM*; C: nt; D: nt; E: nt; F: nt

canonical_smiles: COc1cccc(CC2(CO)CCCN(Cc3ccc(C)s3)C2)c1 (stereo unspecified)
  A: 1.2%; B: -3.9%; C: 5.8%; D: -4.3%; E: -1.2%; F: -78.0*

canonical_smiles: COc1cccc(CC2(CO)CCCN(Cc3ccc(CO)o3)C2)c1 (stereo unspecified)
  A: -7.0%; B: -2.5%; C: 2.5%; D: 3.9%; E: 2.2%; F: 7.2

canonical_smiles: C/C(=N\NC(=O)c1ccccc1[N+](=O)[O-])c1ccc(Br)s1
  A: -5.2%; B: -0.6%; C: 10.0%; D: -3.8%; E: 0.8%; F: -65.9*

canonical_smiles: CCOC(=O)NN1C(=O)c2ccccc2NC1c1cccs1 (stereo unspecified)
  A: 35.5µM*; B: -0.5%; C: 97.9%; D: -0.7%; E: 0.8%; F: 3.8

canonical_smiles: Clc1ccccc1N=C1NN=C(c2cccs2)CS1
  A: 16.9%; B: ?; C: -8.1%; D: -22.2%; E: 0.7%; F: -82.9*

canonical_smiles: CC(C)(Cc1ccc(O)cc1)NC(=O)SCc1ccccc1
  A: -7.0%; B: 7.1%; C: -2.5%; D: 2.1%; E: 0.3%; F: 4.0

canonical_smiles: Nc1cccc2nc3ccccc3cc12
  A: ?; B: -20.5%; C: 18.0%; D: ?; E: -0.4%; F: nt

canonical_smiles: Cc1cc2c(N)cccc2nn1
  A: 11.2µM*; B: 2.7%; C: -3.5%; D: -6.5%; E: -0.2%; F: nt

canonical_smiles: CCOc1ccc(Nc2nc(-c3cccc(Cl)c3)c3c(n2)-c2ccccc2OC3)cc1
  A: 2.5%; B: nt; C: nt; D: 9.0%; E: 14.6%; F: -7.4

canonical_smiles: COCCCn1c(SCc2ccccc2F)nc2c(sc3ccccc32)c1=O
  A: -2.1%; B: nt; C: nt; D: 1.0%; E: 11.9%; F: nt

canonical_smiles: O=C(/C=C/c1ccc(O)cc1)c1ccc(O)cc1O
  A: -2.8%; B: 16.4µM*!; C: 4.5%; D: 8.6%; E: 0.5%; F: nt

canonical_smiles: Brc1ccc(OCc2ccccc2)c(CNCc2ccncc2)c1
  A: -3.1%; B: 6.5%; C: -3.6%; D: 13.0%; E: -0.7%; F: -89.0*

canonical_smiles: Nc1ccc(N2CCN(c3ncc(C(F)(F)F)cc3Cl)CC2)c(C(F)(F)F)c1
  A: -3.7%; B: nt; C: nt; D: ?; E: 1.4%; F: nt

canonical_smiles: COc1cc2c(cc1NC(=O)CN(C)Cc1ccc(OC)c(OC)c1)oc1ccccc12
  A: 4.7%; B: 14.1µM*; C: -14.1%; D: 26.2%; E: 0.8%; F: -6.9

canonical_smiles: Cc1c(C(=O)Nc2ccc(S(=O)(=O)Nc3ncccn3)cc2)oc2ccc(F)cc12
  A: -17.4%; B: 2.5%; C: -3.1%; D: -8.1%; E: 0.6%; F: -23.7

canonical_smiles: Cc1ccc(CC(=O)Nc2nc3ccccc3s2)cc1
  A: 6.4%; B: 0.8%; C: -2.7%; D: -36.6%; E: 0.5%; F: -14.7

canonical_smiles: Cc1nc2c(ccc3nc(NC(=O)Cc4ccccc4)sc32)s1
  A: 2.3%; B: 11.2µM*; C: -19.1%; D: -51.9%; E: -0.1%; F: nt

canonical_smiles: C=C1c2cccc(O)c2C(O)=C2C(=O)[C@]3(O)C(O)=C(C(N)=O)C(=O)[C@@H](N(C)C)[C@@H]3[C@@H](O)[C@H]12
  A: 3.6%; B: -1.9%; C: 4.3%; D: 1.1%; E: -0.9%; F: -70.1*

canonical_smiles: C[C@H]1c2cccc(O)c2C(O)=C2C(=O)C3(O)C(O)=C(C(N)=O)C(=O)[C@@H](N(C)C)[C@@H]3[C@@H](O)[C@@H]21 (stereo partly specified)
  A: -10.4%; B: -3.4%; C: 3.0%; D: nt; E: -0.2%; F: nt

canonical_smiles: CCc1ccc(N=c2c([N+](=O)[O-])nn(-c3ccccc3)n2O)cc1
  A: 4.5%; B: 17.8µM*; C: -4.9%; D: -2.4%; E: 0.5%; F: 4.6

canonical_smiles: Cc1cccc(-c2nc(C)c(CCNC(=O)c3cccs3)s2)c1
  A: 0.0%; B: nt; C: nt; D: -41.8%; E: -0.6%; F: nt

canonical_smiles: COCCCNCCOCCOc1ccc(Cl)cc1C(C)(C)C
  A: nt; B: -10.7%; C: -1.7%; D: 18.5%; E: 0.6%; F: -64.1*

Given bar-delimited: part of the list above
structure | ERG Ets-DNA blk | Mito fusion yeast | S-ASM inh | miR-21 FLuc | RXFP1 agonist | RXFP1 antag
Cc1c(F)cc2c(=O)c(C(=O)O)cn3c2c1CCC3C (stereo unspecified) | nt | nt | nt | nt | nt | -7.4
CN(C)c1ccc(/C=C2\C(=O)Nc3ccccc32)cc1 | nt | 13µM* | nt | nt | nt | nt

Further compounds follow:
Assay codes: A = ERG Ets-DNA blk; B = Mito fusion yeast; C = S-ASM inh; D = miR-21 FLuc; E = RXFP1 agonist; F = RXFP1 antag
canonical_smiles: C=CCc1cc(Cl)ccc1OCCNCCOC
  A: 0.3%; B: ?; C: 1.2%; D: -8.6%; E: 3.0%; F: -81.3*

canonical_smiles: CCOc1ccc(CN2C(=O)c3ccccc3Sc3ccc(C(=O)NCc4ccco4)cc32)cc1
  A: 2.4%; B: nt; C: nt; D: -0.1%; E: 2.9%; F: nt

canonical_smiles: Cc1ccc(CNC(=O)CSc2ncc3c(n2)-c2ccc(Cl)cc2N(Cc2ccccc2)S3(=O)=O)cc1
  A: -0.7%; B: nt; C: nt; D: -2.9%; E: 28.2µM*; F: nt

canonical_smiles: CCOc1ccc(NC(=O)CSc2ncc3c(n2)-c2ccc(Cl)cc2N(Cc2ccccc2)S3(=O)=O)cc1
  A: 1.3%; B: nt; C: nt; D: 10.6%; E: 11.2µM*; F: -4.2

canonical_smiles: COc1ccccc1N1CCN(C(=O)c2sc3nc(C)nc(N4CCN(c5ccccn5)CC4)c3c2C)CC1
  A: -10.8%; B: 28.2µM*; C: -14.4%; D: 26.3%; E: 7.2%; F: ?

canonical_smiles: COc1ccccc1N1CCN(C(=O)c2sc3ncnc(N4CCN(c5ccccn5)CC4)c3c2C)CC1
  A: -2.9%; B: 2.9%; C: -25.6%; D: 24.2%; E: -0.1%; F: -16.1

canonical_smiles: C=CCOc1ccc(C(c2c(C(=O)O)[nH]c3ccccc23)c2c(C(=O)O)[nH]c3ccccc23)cc1
  A: 35.5µM*; B: 9.8%; C: ?; D: 0.7%; E: 9.3%; F: -14.9

canonical_smiles: COC(=O)CCCCC(CCSS/C(CCO)=C(\C)N(C=O)Cc1cnc(C)nc1N)SC(C)=O (stereo unspecified)
  A: nt; B: nt; C: nt; D: nt; E: nt; F: 2.3

canonical_smiles: O=C(Nc1ccc(N2CCN(c3ccc(C(F)(F)F)cn3)CC2)nc1)c1cccs1
  A: -3.1%; B: -2.6%; C: 7.3%; D: -3.1%; E: 6.4%; F: -5.6

canonical_smiles: O=C(Nc1ccc(N2CCN(c3ncccc3C(F)(F)F)CC2)nc1)c1cccs1
  A: 2.3%; B: 6.5%; C: -3.5%; D: ?; E: 2.6%; F: -69.0*

canonical_smiles: Nc1nnc(-c2cccc(Cl)c2Cl)c(N)n1
  A: 4.3%; B: 20.6µM*!; C: -4.5%; D: -6.2%; E: -1.1%; F: -5.3

canonical_smiles: CCCc1nn2c(=O)cc(COC(=O)c3ccccc3NC(=O)C3CCCCC3)nc2s1
  A: 1.8%; B: nt; C: nt; D: -17.2%; E: 0.0%; F: 1.1

canonical_smiles: CC(=O)c1ccc2c3c(cccc13)CC2
  A: -3.2%; B: 6.6%; C: 2.8%; D: -10.5%; E: 0.9%; F: -6.6

canonical_smiles: ON=C(c1ccccc1)c1ccc2c3c(cccc13)CC2
  A: nt; B: nt; C: nt; D: nt; E: nt; F: -105.6*

canonical_smiles: Cc1ccc2c(=O)cc(CSc3ncn[nH]3)[nH]c2c1C
  A: -5.6%; B: nt; C: nt; D: 14.0%; E: 8.5%; F: 2.4

canonical_smiles: Cc1ccc(CNC(=O)CN(C)S(=O)(=O)c2ccc3c(c2)n(C)c(=O)c(=O)n3C)cc1
  A: -12.9%; B: -2.7%; C: 0.5%; D: 0.8%; E: 9.8%; F: -68.4*

canonical_smiles: Cc1ccc(S(=O)(=O)N(C)CC(=O)Nc2cc(C)ccn2)cc1
  A: 1.4%; B: 2.8%; C: -1.9%; D: nt; E: -0.7%; F: -82.8*

canonical_smiles: CN(CC(=O)NCc1ccc(F)cc1)S(=O)(=O)c1ccc2c(c1)n(C)c(=O)c(=O)n2C
  A: 5.6%; B: 0.4%; C: -1.9%; D: -1.5%; E: 6.2%; F: -6.5

canonical_smiles: Cc1ccc(NC(=O)c2ccc3c(O)c(S(=O)(=O)c4ccccc4)c(=O)[nH]c3c2)cc1Cl
  A: 3.4%; B: nt; C: nt; D: 1.7%; E: -1.3%; F: -17.7

canonical_smiles: COc1ccc(NC(=O)C/C(C)=N/NC(=O)c2ccco2)c([N+](=O)[O-])c1
  A: -2.5%; B: 15.2%; C: 1.5%; D: -49.9%; E: 3.0%; F: -66.2*

Assay outcomes: PubChem, National Center for Advancing Translational Sciences (NCATS)
